Laboratory results from patent EP1479385B1, “Use of cyclooxygenase-2 inhibitors in the treatment and prevention of neoplasia” (G.D. Searle LLC, priority 1996, dated 1998).

Test system: Lewis Lung carcinoma cells
Assay: Combination therapy in Lewis Lung carcinoma model (tumor volume)
Format: in vivo, C57BL/6 mice
Procedure: Lewis Lung carcinoma cells (2.5 x 10^6 cells) prepared from a brei carried in C57BL/6 mice were injected sub-cutaneously into the hind legs of mice.

For NS(=O)(=O)c1ccc(-n2nc(C(F)F)cc2-c2ccc(Cl)cc2)cc1 [COX-2 inhibitor, 4-[5-(4-chlorophenyl)-3-(difluoromethyl)-1H-pyrazol-1-yl]benzenesulfonamide], the “Tumor Volume (Day 22) % Inhibition” value (COX-2 inhibitor 6 mg/kg by gavage twice a week) was 0% and the “Tumor Volume (Day 22) % Inhibition” value (COX-2 inhibitor 20 mg/kg by gavage twice a week) was 54%.
